Values quoted from earlier work in patent publication US9345700B2, “Compositions and methods useful for treating diseases” (Eutropics Pharmaceuticals, Inc., priority 2011, dated 2016).

The chains behind the UniProt entries cited, without tags or fusion partners.
UniProt P10415, whole entry, species assumed: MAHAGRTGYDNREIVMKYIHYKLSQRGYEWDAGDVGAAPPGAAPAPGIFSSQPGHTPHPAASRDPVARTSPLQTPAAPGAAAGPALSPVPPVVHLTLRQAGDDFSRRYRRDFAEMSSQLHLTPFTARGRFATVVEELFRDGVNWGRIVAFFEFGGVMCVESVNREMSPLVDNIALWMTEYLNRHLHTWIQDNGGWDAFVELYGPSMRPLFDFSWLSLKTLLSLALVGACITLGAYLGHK
UniProt Q07820, whole entry, species assumed: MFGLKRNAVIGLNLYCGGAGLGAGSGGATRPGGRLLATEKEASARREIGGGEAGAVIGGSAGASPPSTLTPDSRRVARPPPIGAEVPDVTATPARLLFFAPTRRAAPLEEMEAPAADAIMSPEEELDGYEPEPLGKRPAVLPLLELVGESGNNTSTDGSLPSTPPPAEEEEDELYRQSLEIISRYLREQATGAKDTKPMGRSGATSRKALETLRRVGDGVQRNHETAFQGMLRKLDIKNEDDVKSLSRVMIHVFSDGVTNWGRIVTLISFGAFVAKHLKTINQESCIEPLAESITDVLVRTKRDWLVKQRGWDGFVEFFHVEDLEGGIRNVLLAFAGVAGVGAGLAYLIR

How the values were obtained:
[1] = target: Bcl-2 (Homo sapiens (Human), UniProt P10415); settings: read-out: IC50 versus Bcl-2; cited from earlier work
[2] = target: Mcl-1 (Homo sapiens (Human), UniProt Q07820); settings: cited from earlier work

| Structure (SMILES) | IC50 [1] | IC50 [2] |
| --- | --- | --- |
| CC1(C)CCC(c2ccc(Cl)cc2)=C(CN2CCN(c3ccc(C(=O)NS(=O)(=O)c4ccc(N[C@H](CCN5CCOCC5)CSc5ccccc5)c(S(=O)(=O)C(F)(F)F)c4)cc3)CC2)C1 [ABT-263] | < 10 nM | – |
| CN(C)CC[C@H](CSc1ccccc1)Nc1ccc(S(=O)(=O)NC(=O)c2ccc(N3CCN(Cc4ccccc4-c4ccc(Cl)cc4)CC3)cc2)cc1[N+](=O)[O-] [ABT-737] | – | < 500 nM |
